Screens from PubChem BioAssay.
HCMV UL50-53 inh: inhibitors of HCMV UL50-UL53 interaction, biochemical, HTRF. HCMV UL50-UL53 nuclear egress complex (human cytomegalovirus). normalized percent inhibition. inhibition, % (concentration not given with the values). 190,000 compounds, 0.15% hits. AID 1918969, 2023; in the data active means inhibition above about 27%, passing the limit was not always enough
GIV Gai3 FP: blocks GIV peptide binding to rat Galpha-i3. P08753. Galpha-i3/FITC-GIV peptide fluorescence polarization, 90 min; stronger effect = lower value; scaled: aluminum fluoride 0%, vehicle 100%. percent of control (FP), % (concentration not given with the values). hit rate 0.42% among 210,000. AID 1224905;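 active means replicate mean at 85% of control or lower, very high polarization wells dropped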;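 further: wells of about 15 µL received 100 nL stock; the first replicate is given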
GIV-Gai FP conf: inhibitors of GIV peptide binding to Galpha-i3, confirmation, biochemical, fluorescence polarization, FITC-GIV peptide, rat Galphai3 | 580 compounds, 38% hits | active compounds read low | fluorescence polarization, mP at 100 µM | shares compounds with GIV Gai3 FP;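 active means inhibition score of 15 or more, meaning 100 minus mean polarization as percent of control over three replicates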;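 further: lower mP means peptide displaced from Galphai3 so more inhibition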
GIV Gai AS conf: inhibitors of GIV binding to Galpha-i3, confirmation, orthogonal assay for GIV-Galpha-i inhibitor project, biochemical, AlphaScreen, His-GIV, GST-Galphai3 | shares compounds with GIV Gai3 FP | purified proteins, 90 min; active compounds read low | AlphaScreen counts at 100 µM | 580 compounds, 39% hits;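 active means inhibition score at or above a set limit, where the score is 100 minus the three-replicate mean percent of control signal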
Each line names hits and unclear results; the compound was inactive in the other large screens (follow-up assays come after a bar, where they were run). Hits are enriched below; roughly 0.43% of the tested compounds scored in any of these assays.

Cn1nc(C(=O)Nc2ccc3c(c2)OCO3)cc1C(F)(F)F	none
CCOC(=O)c1[nH]c(=O)c2ccccc2c1O	none
Cc1ccc(C(=O)c2[nH]c(=O)c3ccccc3c2O)c(C)c1	HCMV UL50-53 inh 60, GIV Gai3 FP 81 | GIV-Gai FP conf inactive | GIV Gai AS conf inactive
Nc1n[nH]c2cc(=O)[nH]c(O)c12	HCMV UL50-53 inh 110, GIV Gai3 FP 48 | GIV-Gai FP conf 45 | GIV Gai AS conf 7988
Cc1cc2c(=O)[nH]nc(N)c2c(=O)[nH]1	none
COC(=O)c1c(NC(=O)CC2Sc3ccccc3NC2=O)sc(C)c1C (stereo not drawn)	none (no result: GIV Gai3 FP)
COC(=O)c1c(NC(=O)CC2Nc3cc(C)c(C)cc3NC2=O)sc(C)c1C (stereo not drawn)	none (no result: HCMV UL50-53 inh) | GIV-Gai FP conf 22 | GIV Gai AS conf inactive
CCN(CC)C(=O)CSc1nc2c(sc(=S)n2CCc2ccccc2)c(=O)n1Cc1ccco1	none (no result: HCMV UL50-53 inh)
CN(C)/C=C/C=C/c1cc(=O)cc(/C=C/C=C/N(C)C)o1	HCMV UL50-53 inh 67, GIV Gai3 FP 5.8 | GIV-Gai FP conf 25 | GIV Gai AS conf 2403
COc1cc(C(c2c(C)[nH]n(-c3ccccc3)c2=O)c2c(C)[nH]n(-c3ccccc3)c2=O)ccc1O	none (no result: HCMV UL50-53 inh)
Cc1[nH]n(-c2ccccc2)c(=O)c1C(c1ccc(N(C)C)cc1)c1c(C)[nH]n(-c2ccccc2)c1=O	none (no result: HCMV UL50-53 inh)
Cc1[nH]n(-c2ccccc2)c(=O)c1C(c1cccc(O)c1)c1c(C)[nH]n(-c2ccccc2)c1=O	GIV Gai3 FP 66 (no result: HCMV UL50-53 inh) | GIV-Gai FP conf 51 | GIV Gai AS conf 11539
Cc1[nH]n(-c2ccccc2)c(=O)c1C(c1ccc(OCc2ccccc2Cl)cc1)c1c(C)[nH]n(-c2ccccc2)c1=O	none (no result: HCMV UL50-53 inh)
Cc1[nH]n(-c2ccccc2)c(=O)c1C(c1ccccc1)c1c(C)[nH]n(-c2ccccc2)c1=O	GIV Gai3 FP 77 (no result: HCMV UL50-53 inh) | GIV-Gai FP conf inactive | GIV Gai AS conf 18252
Cc1[nH]n(-c2ccccc2)c(=O)c1C(c1cccc([N+](=O)[O-])c1)c1c(C)[nH]n(-c2ccccc2)c1=O	none (no result: HCMV UL50-53 inh)
CCCCCCCOc1ccc(C(c2c(C)[nH]n(-c3ccccc3)c2=O)c2c(C)[nH]n(-c3ccccc3)c2=O)cc1	GIV Gai3 FP 82 (no result: HCMV UL50-53 inh) | GIV-Gai FP conf inactive | GIV Gai AS conf inactive
Cc1[nH]n(-c2ccccc2)c(=O)c1C(c1cccc(Br)c1)c1c(C)[nH]n(-c2ccccc2)c1=O	GIV Gai3 FP 74 (no result: HCMV UL50-53 inh) | GIV-Gai FP conf inactive | GIV Gai AS conf 23480
Nc1nnc(SCC(=O)N2CCCCCC2)s1	none (no result: GIV Gai3 FP)
CCOc1ccccc1C(c1c(C)[nH]n(-c2ccccc2)c1=O)c1c(C)[nH]n(-c2ccccc2)c1=O	none (no result: HCMV UL50-53 inh)
COc1ccccc1C(c1c(C)[nH]n(-c2ccccc2)c1=O)c1c(C)[nH]n(-c2ccccc2)c1=O	GIV Gai3 FP 74 (no result: HCMV UL50-53 inh) | GIV-Gai FP conf inactive | GIV Gai AS conf inactive
COCCn1c(C)cc(C=C2C(=O)NC(=O)NC2=O)c1C	none
COCCn1c(C)cc(C=C2C(=O)N(C)C(=S)N(C)C2=O)c1C	none (no result: HCMV UL50-53 inh) | GIV-Gai FP conf inactive | GIV Gai AS conf 21525
Cc1cc2nc(COc3ccccc3NC(=O)CCC3CCCC3)cc(=O)n2o1	none
COc1ccc(/C=c2\sc3ncnn3c2=O)cc1	none (no result: GIV Gai3 FP)
CCN(CC)c1ccc(/C=c2\sc3ncnn3c2=O)cc1	GIV Gai3 FP 57 (no result: HCMV UL50-53 inh) | GIV-Gai FP conf 35 | GIV Gai AS conf inactive
O=C1C(c2ccnc3ccccc23)=C(O)c2ccccc21	GIV Gai3 FP 64 | GIV-Gai FP conf inactive | GIV Gai AS conf inactive
O=C1C(=O)c2ccccc2C(O)=C1c1ccccc1F	none
CCc1ccc(-c2ccc(=O)[nH]n2)cc1S(=O)(=O)Nc1cc(C)cc(C)c1	none
CCOC(=O)CN1C(=O)C2CC=C(Cl)CC2C1=O (stereo not drawn)	GIV Gai3 FP 81 | GIV-Gai FP conf inactive | GIV Gai AS conf inactive
O=C1C2CC=C(Cl)CC2C(=O)N1CCO (stereo not drawn)	none
Cc1nnsc1C(=O)ON=C(c1cccs1)c1cccs1	none
O=S(=O)(Nc1ccc(O)c(Sc2ncn[nH]2)c1)c1ccccc1	none (no result: HCMV UL50-53 inh)
O=C1C(Sc2ncn[nH]2)=C/C(=N/S(=O)(=O)c2ccc(Cl)cc2)c2ccccc21	GIV Gai3 FP 8.2 | GIV-Gai FP conf 18 | GIV Gai AS conf 4487
CN1C(=O)/C(=C2\SC(=S)N(C(CC(=O)O)C(=O)O)C2=O)c2ccccc21 (stereo not drawn)	none
C=Cc1ccc(Cn2c(=O)c3cnc(-c4ccc(Cl)cc4)nc3n(CC)c2=O)cc1	none (no result: HCMV UL50-53 inh)
N#Cc1ccccc1Cn1cc(C=C2C(=O)NC(=O)NC2=O)c2ccccc21	GIV Gai3 FP 63 | GIV-Gai FP conf inactive | GIV Gai AS conf inactive
O=C1NC(=O)/C(=C\c2cn(Cc3ccccc3F)c3ccccc23)N1	none (no result: HCMV UL50-53 inh)
O=c1[nH]c(SCCO)nc2sc3c(c12)CCCC3	none (no result: GIV Gai3 FP)
O=C(O)CC(Sc1nc2sc3c(c2c(=O)[nH]1)CCCC3)C(=O)O (stereo not drawn)	GIV Gai3 FP 75 (no result: HCMV UL50-53 inh) | GIV-Gai FP conf 52 | GIV Gai AS conf 16638
COc1ccc(CNC(=O)C2CCCN(c3nc4ncccc4n4cccc34)C2)cc1 (stereo not drawn)	none
COc1ccc2c(CC(=O)Nc3ccccc3)coc2c1	none (no result: GIV Gai3 FP)
COc1ccc2c(CC(=O)O)coc2c1	none | GIV-Gai FP conf inactive | GIV Gai AS conf inactive
COC(=O)c1ccc(-c2ncc(-c3ccc(N(C)C)cc3)o2)cc1	none | GIV-Gai FP conf inactive | GIV Gai AS conf inactive
COC(=O)c1ccc(-c2nnc(-c3ccc(N(C)C)cc3)o2)cc1	none (no result: GIV Gai3 FP)
CCc1ccc(COC(=O)c2nnn(-c3ccc(C)c(Cl)c3)c2C)cc1	none
COc1ccc(CCN(C)Cn2ncn(C)c2=S)cc1OC	none (no result: GIV Gai3 FP)
O=S(=O)(c1cccc2nsnc12)N1CCC(Cc2ccccc2)CC1	none (no result: HCMV UL50-53 inh)
O=S(=O)(c1cccc2nonc12)N1CCC(Cc2ccccc2)CC1	none (no result: HCMV UL50-53 inh) | GIV-Gai FP conf inactive | GIV Gai AS conf inactive
Cc1cc(NC(=O)C(C)Oc2ccccc2)n(-c2ncnc3c2cnn3-c2ccc(Cl)cc2)n1 (stereo not drawn)	none
Cc1ccc(NC(=O)c2sc3nc4c(c(-c5ccco5)c3c2N)CCC4)cc1	GIV Gai3 FP 76 (no result: HCMV UL50-53 inh) | GIV-Gai FP conf inactive | GIV Gai AS conf inactive
Cc1ccc(NC(=O)c2sc3nc4c(c(-c5ccco5)c3c2N)CCCC4)cc1	none (no result: HCMV UL50-53 inh)
Cc1cccc(-c2noc(-c3cccnc3N3CCC(C(=O)NCc4ccccc4F)CC3)n2)c1	none (no result: HCMV UL50-53 inh)
Cc1cc(C(F)(F)F)n2nc(-c3ccccc3)cc2n1	none
Cc1cc(-c2ccccc2)n2nc(-c3ccc(Cl)cc3)cc2n1	GIV Gai3 FP 51 (no result: HCMV UL50-53 inh) | GIV-Gai FP conf inactive | GIV Gai AS conf inactive
Cc1nc2ccccc2n(Cc2ccc(C(=O)NCc3ccccn3)cc2)c1=O	none
Cc1cccc(NC(=O)NC(C)c2c(-n3cccc3)sc(C)c2C)c1C (stereo not drawn)	none (no result: HCMV UL50-53 inh) | GIV-Gai FP conf inactive | GIV Gai AS conf inactive
Cc1ccc(NC(=O)NC(C)c2c(-n3cccc3)sc(C)c2C)cc1F (stereo not drawn)	none
